Data taken from US11013816B2, “Antibody drug conjugates having derivatives of amatoxin as the drug” (Sorrento Therapeutics, Inc., priority 2016, dated 2021).

Columns and labels:
Assay type in all cases: in vivo, Nu/Nu mice
[1] = tested on: H292 xenograft; test: H292 human xenograft tumor growth in nude mice; conditions: single dose 3 mg/kg i.v.
Description: (§1) This example provides the results for the efficacy of ADCs conjugated with small molecule 22, 23, 25, or 27 in a model of H292, HCC827, and H1975 Human Xenograft Tumor Growth in Nude Mice. HCC827, H292, H1975 cell lines were obtained from ATCC. The cells were cultured in RPMI 1640 1X (Corning 10-041-CV) medium with 10% FBS (Seradigm 1500-500) and penicillin streptomycin (Corning 30-002-CI) at 37° C. in a 5% carbon dioxide humidified environment. Cells were cultured for a period of 2 weeks and passaged 4 times before harvest. The cells were harvested with 0.25% trypsin (Corning 25-050-CI). Prior to injection, HCC827 cells were mixed in a 1:1 ratio of HBSS (Hank's balanced salt solution; Ward's 470180-784) and matrigel (Corning 354234) mixture, and 7 million cells per 0.2 ml were injected subcutaneously into the upper right flank of each mouse. H292 cells were resuspended in HBSS, and 5 million cells per 0.2 ml were injected subcutaneously into the upper right flank of each mouse. H1975 cells were resuspended in HBSS, and 3 million cells per 0.2 ml were injected subcutaneously into the upper right flank of each mouse. […]
(§2) Upon receipt, mice were housed 5 mice per cage in a room with a controlled environment. […] The animals' health status was monitored during the acclimation period. […]
(§3) Tumor growth was monitored by measurement of tumor width and length using a digital caliper starting day 5-7 after inoculation, and followed twice per week until tumor volume reached ˜100-250 mm^3. Tumor volume was calculated using the formula: Volume (mm^3)=[Length (mm)×Width (mm)^2]/2. […] Tumor growth was monitored, and each group of mice was sacrificed when the average tumor load for the control group exceeded 2000 mm^3.
(§4) Tumor volume was measured twice weekly throughout the experimental period to determine TGI (tumor growth inhibition %). The body weight of each mouse was measured twice weekly by electric balance. Group average and standard deviation were calculated, and statistical analyses (one-way ANOVA with Dunnett's multiple comparison test; GraphPad Prism 6.0) was carried out. […]

[2] = Body weight and skin observations in the H292 xenograft study; conditions: single dose 3 mg/kg i.v., FIG. 10
Description: (§5) Female Nu/Nu mice aged 5-7 weeks (Charles River) were used throughout these studies.
(§6) Tumor volume was measured twice weekly throughout the experimental period to determine TGI (tumor growth inhibition %). The body weight of each mouse was measured twice weekly by electric balance. Group average and standard deviation were calculated, and statistical analyses (one-way ANOVA with Dunnett's multiple comparison test; GraphPad Prism 6.0) was carried out. All treatment groups were compared with the PBS group. P<0.05 was considered statistically significant.

[3] = Body weight in the HCC827 xenograft studies; conditions: -23 conjugates, 3 mg/kg, FIG. 13
Description: as §5, §6

[4] = tested on: HCC827 xenograft; test: HCC827 human xenograft tumor growth in nude mice
Description: as §1, §2, §3, §4

Row | Molecule | H292 tumor growth inhibition compared to PBS control group ([1]; FIG. 8) | complete tumor regression (tumor free mice) ([1]; FIG. 9) | tumor size/Weight compared to PBS Control group ([1]; FIG. 9) | treatment-related body weight loss [2] | body weight loss [3] | tumor volume compared to PBS Control group ([4]; single dose 3 mg/kg i.v., FIG. 11) | tumor weight compared to PBS Control group ([4]; single dose 3 mg/kg i.v., FIG. 12) | H292 tumor growth inhibition compared to PBS treated control group ([4]; single dose 3 mg/kg, FIGS. 11 and 12, text prints H292, Table 3 HCC827)
1 | Nimo-22: Nimo antibody conjugated with 22 (conjugate, chains of the INN, looked up, drug conjugate 22) heavy: QVQLQQSGAEVKKPGSSVKVSCKASGYTFTNYYIYWVRQAPGQGLEWIGGINPTSGGSNFNEKFKTRVTITADESSTTAYMELSSLRSEDTAFYFCTRQGLWFDSDGRGFDFWGQGTTVTVSSASTKGPSVFPLAPSSKSTSGGTAALGCLVKDYFPEPVTVSWNSGALTSGVHTFPAVLQSSGLYSLSSVVTVPSSSLGTQTYICNVNHKPSNTKVDKKV[left out - human IgG1 Fc] light: DIQMTQSPSSLSASVGDRVTITCRSSQNIVHSNGNTYLDWYQQTPGKAPKLLIYKVSNRFSGVPSRFSGSGSGTDFTFTISSLQPEDIATYYCFQYSHVPWTFGQGTKLQITRTVAAPSVFIFPPSDEQLKSGTASVVCLLNNFYPREAKVQWKVDNALQSGNSQESVTEQDSKDSTYSLSSTLTLSKADYEKHKVYACEVTHQGLSSPVTKSFNRGEC | significantly inhibited | 4 out of 7 | significantly reduced | no significant |  |  |  | 
2 | Nimo-23: Nimo antibody conjugated with 23 (conjugate, chains of the INN, looked up, drug conjugate 23) heavy: QVQLQQSGAEVKKPGSSVKVSCKASGYTFTNYYIYWVRQAPGQGLEWIGGINPTSGGSNFNEKFKTRVTITADESSTTAYMELSSLRSEDTAFYFCTRQGLWFDSDGRGFDFWGQGTTVTVSSASTKGPSVFPLAPSSKSTSGGTAALGCLVKDYFPEPVTVSWNSGALTSGVHTFPAVLQSSGLYSLSSVVTVPSSSLGTQTYICNVNHKPSNTKVDKKV[left out - human IgG1 Fc] light: DIQMTQSPSSLSASVGDRVTITCRSSQNIVHSNGNTYLDWYQQTPGKAPKLLIYKVSNRFSGVPSRFSGSGSGTDFTFTISSLQPEDIATYYCFQYSHVPWTFGQGTKLQITRTVAAPSVFIFPPSDEQLKSGTASVVCLLNNFYPREAKVQWKVDNALQSGNSQESVTEQDSKDSTYSLSSTLTLSKADYEKHKVYACEVTHQGLSSPVTKSFNRGEC |  |  |  |  | no body weight loss | significantly reduced | significantly reduced | significantly inhibited
